Values after ≈ are worked out from the molar mass of the structure shown.
How the values were obtained:
Format in all cases: functional
Escherichia coli [1] = assay: Antibacterial activity against Escherichia coli ATCC 25922 after 24 hrs in Mueller-Hinton broth medium; conditions: ATCC 25922, 24 h
Pseudomonas aeruginosa = assay: Antibacterial activity against Pseudomonas aeruginosa CUN 4158-02 after 24 hrs in Mueller-Hinton broth medium
Staphylococcus aureus = assay: Antibacterial activity against methicillin-resistant Staphylococcus aureus ATCC 43300 after 24 hrs in Mueller-Hinton broth medium; conditions: ATCC 43300, 24 h
Escherichia coli [2] = assay: Antibacterial activity against Escherichia coli K12 ATCC 23716 after 24 hrs in Mueller-Hinton broth medium; conditions: K12, 24 h
Escherichia coli [3] = assay: Antibacterial activity against Escherichia coli K12 ATCC 23716 in 10% Luria-Bertani medium/90% Hepes buffer at pH 7.0

## CC[C@H](C)[C@H](NC(=O)CN)C(=O)NCC(=O)N[C@@H](C)C(=O)N[C@H](C(=O)N[C@@H](CC(C)C)C(=O)N[C@@H](CCCCN)C(=O)N[C@H](C(=O)N[C@@H](CC(C)C)C(=O)N[C@H](C(=O)N[C@H](C(=O)NCC(=O)N[C@@H](CC(C)C)C(=O)N1CCC[C@H]1C(=O)N[C@@H](C)C(=O)N[C@@H](CC(C)C)C(=O)N[C@H](C(=O)N[C@@H](CO)C(=O)N[C@@H](Cc1c[nH]c2ccccc12)C(=O)N[C@H](C(=O)N[C@@H](CCCCN)C(=O)N[C@@H](CCCNC(=N)N)C(=O)N[C@@H](CCCCN)C(=O)N[C@@H](CCCNC(=N)N)C(=O)N[C@@H](CCC(N)=O)C(=O)N[C@@H](CCC(N)=O)C(N)=O)[C@@H](C)CC)[C@@H](C)CC)[C@@H](C)O)[C@@H](C)O)C(C)C)C(C)C [MELITTIN]
Escherichia coli [1]
  MIC: 4 mg/L (≈ 1.41 µM)
Pseudomonas aeruginosa
  MIC: 16 mg/L (≈ 5.62 µM)
Staphylococcus aureus
  MIC: 2 mg/L (≈ 0.703 µM)
Escherichia coli [2]
  MIC: 4 mg/L (≈ 1.41 µM)
Escherichia coli [3]
  MIC: 12.5 mg/L (≈ 4.39 µM)
